This is a selection; strong and weak results do not stand in their true shares. Some tests of the compounds listed are not included; inactive here does not mean inactive elsewhere. The source made the active and inactive calls.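 How the source made its calls: active means activation above its plate's cutoff, the mean activation of the plate's test wells plus 3 SD (cut at about 12% in these data); inactive means the rest.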
molecular target: Mucolipin-3 (Homo sapiens) (UniProt Q8TDD5); experiment: activators of mucolipin-3 cation channel – cell-based, HEK293 TRPML3-YFP, Fluo-8 calcium fluorescence, 3 µM, primary screen (AID 1448); details: at 3 µM, active compounds read high, 100% = the carbachol control signal;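 further: 0% = DMSO only wells and 100% = carbachol wells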
Outline: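 system = HEK293 cells stably carrying human TRPML3-YFP | doses = one concentration, 3 µM nominal, 0.3% DMSO | timing = dye loading 1 h 37 °C then 30 min ambient, 125 s read | detection = Fluo-8 calcium dye fluorescence, ex 470-495, em 515-575 nm | benchmarks = high control carbachol 87 µM, low control DMSO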

Chains of the proteins cited; added tags and fusions are not shown.
UniProt Q8TDD5, whole entry: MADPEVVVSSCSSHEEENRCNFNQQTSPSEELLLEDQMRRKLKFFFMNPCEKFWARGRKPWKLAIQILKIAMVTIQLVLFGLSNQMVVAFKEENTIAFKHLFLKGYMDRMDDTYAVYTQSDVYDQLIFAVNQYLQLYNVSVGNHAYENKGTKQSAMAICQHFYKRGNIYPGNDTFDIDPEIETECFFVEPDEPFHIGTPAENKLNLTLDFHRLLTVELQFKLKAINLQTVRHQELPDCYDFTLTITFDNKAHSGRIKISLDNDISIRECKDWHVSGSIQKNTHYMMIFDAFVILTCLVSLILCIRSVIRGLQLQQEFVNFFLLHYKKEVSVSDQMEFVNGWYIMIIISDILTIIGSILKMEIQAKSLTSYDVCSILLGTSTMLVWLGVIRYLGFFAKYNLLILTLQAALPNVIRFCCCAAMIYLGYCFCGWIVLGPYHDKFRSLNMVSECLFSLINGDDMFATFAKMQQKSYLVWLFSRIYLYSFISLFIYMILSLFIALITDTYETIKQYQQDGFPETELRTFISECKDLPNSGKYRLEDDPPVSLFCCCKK

Q: For `CCN1CCCC(OC(=O)C2(O)c3ccccc3C=Cc3ccccc32)C1` (stereo unspecified), which activation is on record?
A: Its activation is inactive: 0.44%.

Q: With `C=CCN1CCN(CCOC(=O)C(O)(c2ccccc2)c2ccccc2)CC1` as the molecule, how does the activation read?
A: The activation was inactive: 0.34%.

Q: Which activation does the source give for `CN(C)C1CCCC1OC(=O)C(O)(c1ccccc1)c1ccccc1` (stereo unspecified) here?
A: The activation was inactive: 0.51%.

Q: How did the activation turn out when `Cc1ccccc1C(=O)NCC1(N2CCCCC2)CCCCC1` was run?
A: Its activation is inactive: 1.27%.

Q: For `CCN(CC)CC(C)C(C)OC(=O)C(O)(c1ccccc1)c1ccccc1` (stereo unspecified), which activation is on record?
A: Its activation is inactive: 0.8%.

Q: For `CC(C)N1C(=O)CC2(CCN(CCOC(=O)C(O)(c3ccccc3)c3ccccc3)CC2)C1=O`, which activation is on record?
A: Its activation is inactive: 0.56%.

Q: For `O=C(NCC1(N2CCCCC2)CCCCC1)c1cc([N+](=O)[O-])ccc1Cl`, which activation is on record?
A: The activation was inactive: 0.44%.

Q: How did the activation turn out when `CN(C)c1cccc(C(=O)NCC2(N(C)C)CCCCC2)c1` was run?
A: The activation was inactive: 0.15%.

Q: How did the activation turn out when `COc1ccc(Br)c(C(=O)NCC2(N3CCCCC3)CCCCC2)c1` was run?
A: Its activation is inactive: -0.83%.

Q: With `O=C(OC1CN2CCC1CC2)C(CO)(c1ccccc1)c1ccccc1` (stereo unspecified) as the molecule, how does the activation read?
A: Its activation is inactive: -0.04%.

Q: For `COc1cccc(C(=O)NCC2(N3CCCCC3)CCCCC2)c1`, which activation is on record?
A: Its activation is inactive: -0.27%.
